Measurements from patent US5094723A, “Separation of m-xylene from p-xylene or o-xylene by extractive distillation with alcohols” (priority 1991, dated 1992).

Experiments:
[1] = Relative volatility, separation of p-xylene from m-xylene, vapor-liquid equilibrium still; conditions: * brings the m-xylene out as overhead (m-xylene to p-xylene)
[2] = Relative volatility, separation of m-xylene from o-xylene, vapor-liquid equilibrium still

SMILES	Relative Volatility [1]	Relative Volatility [2]
CC(C)CCCCCCCO [Isodecanol]	1.16	–
CC(C)CCCCCCCO [Isodecanol (EXXON), Isodecanol]	1.21	–
N#CCCCCC#N [Adiponitrile]	–	1.21
CCCCCCCCCCO [1-Decanol]	1.21	1.21
